Patent US20200157223A1
pEC50: −log10 of the molar value.

The chains behind the UniProt entries cited, without tags or fusion partners. Residues count along the entry.
UniProt Q9NZQ7, 19-290, chain 1 of 2: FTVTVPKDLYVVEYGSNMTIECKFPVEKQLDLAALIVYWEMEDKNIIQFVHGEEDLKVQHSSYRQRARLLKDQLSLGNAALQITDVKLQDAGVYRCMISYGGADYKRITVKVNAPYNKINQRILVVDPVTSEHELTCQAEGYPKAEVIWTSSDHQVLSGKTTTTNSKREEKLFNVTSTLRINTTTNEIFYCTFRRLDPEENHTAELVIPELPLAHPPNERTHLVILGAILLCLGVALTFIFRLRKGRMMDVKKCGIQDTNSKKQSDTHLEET
UniProt P11836, whole entry, chain 1 of 2: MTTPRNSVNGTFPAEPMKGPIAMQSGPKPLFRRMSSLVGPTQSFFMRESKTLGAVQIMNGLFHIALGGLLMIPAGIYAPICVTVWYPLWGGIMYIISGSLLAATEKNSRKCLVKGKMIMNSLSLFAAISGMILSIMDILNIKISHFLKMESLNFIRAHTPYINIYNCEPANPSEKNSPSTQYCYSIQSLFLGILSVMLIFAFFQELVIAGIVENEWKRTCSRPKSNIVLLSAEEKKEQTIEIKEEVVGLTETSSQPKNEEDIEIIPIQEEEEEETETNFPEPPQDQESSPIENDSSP

What was measured:
[1] = target: NCI-H441 cells (PD-L1+CD47) (human) (UniProt Q9NZQ7); test: flow cytometry on IFN-γ-stimulated NCI-H441 cells
[2] = target: Raji cells (CD20+CD47) (human) (UniProt P11836); test: flow cytometry on Raji cells

pEC50 [1]	Maximum average fluorescence intensity [1]	pEC50 [2]	Maximum average fluorescence intensity [2]	Substance
8.81	157000	–	–	Anti-PD-L1(Ate)-Fc1-D1-Fc2 (bispecific antibody)
–	–	7.85	691000	Ofa-Fc1-D1-Fc2 (bispecific antibody)
